Measurements taken from paper PMC9463489 (Journal of Pharmaceutical Analysis, 2022).

Assays:
[1] = target: T1, human pancreatic lipase (hPL) (Homo sapiens, UniProt P16233); assay: fluorescence-based hPL inhibition assay; type: biochemical; settings: hPL-catalyzed 4-MUO hydrolysis; 4-MUO 5 μM, 37 °C, 20 min
T1 sequence (P16233 17-465): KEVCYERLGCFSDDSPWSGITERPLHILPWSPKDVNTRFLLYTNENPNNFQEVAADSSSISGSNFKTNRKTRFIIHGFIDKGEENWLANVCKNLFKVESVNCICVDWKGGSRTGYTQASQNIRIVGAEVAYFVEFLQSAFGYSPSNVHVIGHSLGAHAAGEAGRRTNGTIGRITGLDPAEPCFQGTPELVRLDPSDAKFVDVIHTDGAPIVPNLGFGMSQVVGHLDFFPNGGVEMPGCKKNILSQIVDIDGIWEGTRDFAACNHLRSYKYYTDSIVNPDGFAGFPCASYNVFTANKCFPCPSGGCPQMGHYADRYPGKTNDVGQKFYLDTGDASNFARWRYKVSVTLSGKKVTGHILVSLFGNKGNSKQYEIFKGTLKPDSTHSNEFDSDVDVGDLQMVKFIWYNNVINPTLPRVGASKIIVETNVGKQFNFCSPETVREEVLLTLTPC

[2] = target: T1, human pancreatic lipase (hPL); assay: inhibition kinetics against hPL-catalyzed 4-MUO hydrolysis; type: biochemical; settings: read-out: inhibition constant (Ki)

pIC50 [1] | Ki [2] | Substance
7.68 ± 0.23 | 0.082 µM and < 0.1 µM | catechin gallate [CG]
<4 |  | rhodiosin

“And” between values parts separate entries of the source, which are not always exact repeats. Equal values may be shown once.
